Measurements: patent US9540307B2, “Statins of omega-3 polyunsaturated acids for treating hypercholesterolemia” (Jiva Pharma, Inc., priority 2014, dated 2017)

Target: T1, soluble catalytic domain fragment of human HMG reductase (Homo sapiens, UniProt P04035)
T1 construct: composed of insoluble transmembrane segment and soluble catalytic domain; purchased Sigma-Aldrich CS 1090
T1 sequence (P04035 340-888 limits assumed): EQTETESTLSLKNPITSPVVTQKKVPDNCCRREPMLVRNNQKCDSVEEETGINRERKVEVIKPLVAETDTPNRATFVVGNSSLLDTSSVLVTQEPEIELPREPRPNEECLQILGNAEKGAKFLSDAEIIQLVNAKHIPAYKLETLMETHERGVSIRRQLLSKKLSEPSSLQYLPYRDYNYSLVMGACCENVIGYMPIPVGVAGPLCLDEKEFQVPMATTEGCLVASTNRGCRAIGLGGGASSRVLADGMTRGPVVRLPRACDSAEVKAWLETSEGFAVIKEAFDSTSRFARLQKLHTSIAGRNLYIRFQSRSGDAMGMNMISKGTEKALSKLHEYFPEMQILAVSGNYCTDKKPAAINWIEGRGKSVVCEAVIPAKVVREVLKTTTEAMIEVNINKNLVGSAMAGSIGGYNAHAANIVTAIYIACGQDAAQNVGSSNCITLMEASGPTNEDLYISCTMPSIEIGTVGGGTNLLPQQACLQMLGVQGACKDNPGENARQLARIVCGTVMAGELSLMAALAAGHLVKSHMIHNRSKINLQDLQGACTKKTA
Test: HMG-Co-A reductase inhibition activity, dose-response curves (Sigma-Aldrich assay kit, absorbance at 340 nm)
Type: biochemical
Conditions: NADP(H) 250 μM, sub-saturating NADP(H) and coenzyme A; decrease in absorbance at 340 nm; read-out: IC50 μM error
Description: The utility of the compounds of Formula (I) and Formula (II) are provided below using the following materials and techniques as referenced in the procedure below: • 1. SigmaAldrich. […] In: catalog number CS 1090. […].com/catalog/product/[…]®ion=HR. […] Holdgate G, Ward […]. […] Louis-Flamberg […], Bryan D L, Leber J, Elliott […] et al. […] Nakamura C E, Abeles R H. Mode of interaction of β-hydroxy-β-methylglutaryl coenzyme A reductase with strong binding inhibitors: compactin and related compounds. […], Buchanan […]. Crystal structure of the catalytic portion of human HMG-CoA reductase: insights into regulation of activity and catalysis. […] Motulsky H, Christopoulos A. Fitting Models to Biological Data Using Linear and Nonlinear Regression: A Practical Guide to Curve Fitting Oxford University Press, USA; 1 edition 2004. Procedure: […] Briefly, the dose-response curves have been measured using soluble catalytic domain fragment of human HMG reductase. […] The activity was measured by following decrease in a sample's absorbance at 340 nm caused by enzymatic oxidation of NADP(H) in presence of coenzyme A. […] NADP(H) concentration in the assay mix was adjusted to 250 μM. […] Stock solutions of Na salts of EPA-statin, ALA-statin were prepared in assay buffer in concentration of 50 mM, and subsequently diluted to lower concentrations in the same buffer as needed.

CC[C@H](C)C(=O)O[C@H]1C[C@H](O)C=C2C=C[C@H](C)[C@H](CC[C@@H](O)C[C@@H](O)CC(=O)O)[C@H]21 [Pravastatin, reference compound]
IC50: 1.2 ± 1 µM
